Earlier results in US20230041211A1, “DECREASING TOXICITY OF TERPENES AND INCREASING THE PRODUCTION POTENTIAL IN MICRO-ORGANISMS” (BASF SE, priority 2019, published 2023).

Conditions: Table 3B; cited from earlier work

For Butanol, the loqP is listed as 0.88.
